The values that follow come from PubChem BioAssay AID485346 (Sanford-Burnham Center for Chemical Genomics, 2010).

Protein sequences, listed by entry. Tags and fused reporters are not part of them.
UniProt O15151, whole entry, looked up: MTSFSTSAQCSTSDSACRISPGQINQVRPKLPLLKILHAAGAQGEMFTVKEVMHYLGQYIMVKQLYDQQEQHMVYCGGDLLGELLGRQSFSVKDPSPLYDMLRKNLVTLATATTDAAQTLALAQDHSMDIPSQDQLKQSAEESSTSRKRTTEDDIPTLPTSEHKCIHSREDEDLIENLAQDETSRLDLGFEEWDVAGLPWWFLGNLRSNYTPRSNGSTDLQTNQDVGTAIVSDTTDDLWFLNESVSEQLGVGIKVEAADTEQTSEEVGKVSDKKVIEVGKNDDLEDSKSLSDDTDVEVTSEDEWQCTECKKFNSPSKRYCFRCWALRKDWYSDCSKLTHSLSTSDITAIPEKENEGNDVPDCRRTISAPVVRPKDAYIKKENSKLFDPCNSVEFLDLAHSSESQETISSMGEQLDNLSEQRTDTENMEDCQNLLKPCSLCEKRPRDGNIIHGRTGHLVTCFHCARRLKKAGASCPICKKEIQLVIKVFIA
UniProt Q00987, whole entry, looked up: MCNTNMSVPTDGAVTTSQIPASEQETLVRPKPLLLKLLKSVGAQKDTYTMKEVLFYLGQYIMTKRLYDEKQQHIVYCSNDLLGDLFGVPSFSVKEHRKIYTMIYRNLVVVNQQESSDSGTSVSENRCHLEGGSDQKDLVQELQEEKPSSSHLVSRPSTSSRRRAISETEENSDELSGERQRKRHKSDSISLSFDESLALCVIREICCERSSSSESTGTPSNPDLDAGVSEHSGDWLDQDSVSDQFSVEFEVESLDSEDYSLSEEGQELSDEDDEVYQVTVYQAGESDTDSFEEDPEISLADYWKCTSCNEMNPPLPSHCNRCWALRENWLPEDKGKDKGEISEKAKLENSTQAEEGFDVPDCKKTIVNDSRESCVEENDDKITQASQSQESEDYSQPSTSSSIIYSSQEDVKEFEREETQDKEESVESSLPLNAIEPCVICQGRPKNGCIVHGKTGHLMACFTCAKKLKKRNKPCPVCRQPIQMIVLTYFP

Only a part is listed here, and it is no random draw. Calls of active or inactive are those of the source.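 How the source made its calls: active means inhibition of at least 50% at 8 µM in the primary screen; inactive means the rest.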

The target of the assay is Protein Mdm4 (Homo sapiens) + E3 ubiquitin-protein ligase Mdm2 (Homo sapiens) (UniProt O15151+Q00987). The assay can be described thus: disruptors of Mdm2/MdmX RING complex – cell-based, luminescence, split luciferase, SaOS-2, uHTS, primary screen (AID 485346). As to conditions: SaOS-2 split-luciferase Mdm2/MdmX complementation, at 8 µM, hits give high values.
Consider `CN1CCCCC1COC(=O)C1(O)c2ccccc2CCc2ccccc21` (stereo unspecified), for which the inhibition is inactive: 14.3%.
